# From PubChem BioAssay (Tox21)
# Amino acid sequences for entries named in this document (tags omitted). A change or cut given only in a name is not applied to a line headed by its entry.
# UniProt Q12809: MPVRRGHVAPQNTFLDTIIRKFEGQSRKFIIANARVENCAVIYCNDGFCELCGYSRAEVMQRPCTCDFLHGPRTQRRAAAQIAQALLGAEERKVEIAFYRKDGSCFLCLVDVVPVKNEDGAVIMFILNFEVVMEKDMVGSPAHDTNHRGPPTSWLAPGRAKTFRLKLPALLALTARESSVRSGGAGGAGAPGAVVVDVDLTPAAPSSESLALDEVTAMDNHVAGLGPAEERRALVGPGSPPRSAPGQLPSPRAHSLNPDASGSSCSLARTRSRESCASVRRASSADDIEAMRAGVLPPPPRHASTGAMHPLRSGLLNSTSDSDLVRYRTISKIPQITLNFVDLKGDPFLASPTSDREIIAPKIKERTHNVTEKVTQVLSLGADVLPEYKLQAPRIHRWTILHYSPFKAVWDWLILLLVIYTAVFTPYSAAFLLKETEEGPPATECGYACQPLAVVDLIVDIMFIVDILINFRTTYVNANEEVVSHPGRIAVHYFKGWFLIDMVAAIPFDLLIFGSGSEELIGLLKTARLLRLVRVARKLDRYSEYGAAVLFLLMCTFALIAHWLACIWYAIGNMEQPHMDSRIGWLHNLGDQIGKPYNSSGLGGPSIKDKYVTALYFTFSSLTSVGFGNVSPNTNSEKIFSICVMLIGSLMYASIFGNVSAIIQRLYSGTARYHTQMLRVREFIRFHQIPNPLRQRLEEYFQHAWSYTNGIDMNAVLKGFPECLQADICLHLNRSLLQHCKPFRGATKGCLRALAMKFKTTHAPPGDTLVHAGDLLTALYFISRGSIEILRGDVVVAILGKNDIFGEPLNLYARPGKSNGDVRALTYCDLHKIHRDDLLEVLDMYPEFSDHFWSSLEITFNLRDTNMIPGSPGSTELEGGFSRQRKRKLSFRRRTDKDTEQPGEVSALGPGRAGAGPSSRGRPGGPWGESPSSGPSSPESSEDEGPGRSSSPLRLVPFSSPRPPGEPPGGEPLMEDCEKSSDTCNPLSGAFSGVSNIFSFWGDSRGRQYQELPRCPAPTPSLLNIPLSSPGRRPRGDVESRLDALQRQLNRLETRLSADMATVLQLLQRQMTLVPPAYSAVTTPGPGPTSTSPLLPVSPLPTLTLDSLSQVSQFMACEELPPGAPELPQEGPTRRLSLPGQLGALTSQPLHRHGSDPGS
# UniProt P33261, whole entry, looked up: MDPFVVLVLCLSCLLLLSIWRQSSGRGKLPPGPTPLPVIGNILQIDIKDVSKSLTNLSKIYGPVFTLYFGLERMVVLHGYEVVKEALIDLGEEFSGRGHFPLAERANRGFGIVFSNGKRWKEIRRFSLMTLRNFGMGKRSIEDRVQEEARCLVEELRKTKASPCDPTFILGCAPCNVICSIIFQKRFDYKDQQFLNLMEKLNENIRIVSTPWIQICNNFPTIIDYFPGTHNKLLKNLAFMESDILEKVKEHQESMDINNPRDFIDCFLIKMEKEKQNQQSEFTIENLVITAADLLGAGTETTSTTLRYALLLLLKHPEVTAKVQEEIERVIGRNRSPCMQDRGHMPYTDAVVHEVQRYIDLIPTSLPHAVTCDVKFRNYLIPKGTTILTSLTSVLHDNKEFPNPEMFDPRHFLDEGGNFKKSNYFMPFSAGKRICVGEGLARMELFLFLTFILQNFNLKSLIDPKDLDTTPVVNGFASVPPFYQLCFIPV
# UniProt P10635, whole entry, looked up: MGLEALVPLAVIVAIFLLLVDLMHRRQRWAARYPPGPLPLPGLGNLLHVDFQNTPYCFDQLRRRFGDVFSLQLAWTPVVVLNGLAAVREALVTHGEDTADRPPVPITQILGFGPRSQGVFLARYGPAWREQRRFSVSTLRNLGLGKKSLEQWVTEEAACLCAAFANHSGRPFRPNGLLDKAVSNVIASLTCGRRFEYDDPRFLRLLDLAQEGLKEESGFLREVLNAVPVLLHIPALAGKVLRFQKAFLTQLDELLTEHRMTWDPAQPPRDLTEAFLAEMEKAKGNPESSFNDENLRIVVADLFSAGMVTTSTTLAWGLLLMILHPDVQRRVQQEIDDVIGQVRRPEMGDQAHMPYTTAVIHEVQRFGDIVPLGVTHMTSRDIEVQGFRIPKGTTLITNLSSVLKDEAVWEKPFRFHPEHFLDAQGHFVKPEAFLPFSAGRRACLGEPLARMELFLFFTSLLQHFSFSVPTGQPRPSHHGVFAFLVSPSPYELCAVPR
# UniProt P03372, whole entry, looked up: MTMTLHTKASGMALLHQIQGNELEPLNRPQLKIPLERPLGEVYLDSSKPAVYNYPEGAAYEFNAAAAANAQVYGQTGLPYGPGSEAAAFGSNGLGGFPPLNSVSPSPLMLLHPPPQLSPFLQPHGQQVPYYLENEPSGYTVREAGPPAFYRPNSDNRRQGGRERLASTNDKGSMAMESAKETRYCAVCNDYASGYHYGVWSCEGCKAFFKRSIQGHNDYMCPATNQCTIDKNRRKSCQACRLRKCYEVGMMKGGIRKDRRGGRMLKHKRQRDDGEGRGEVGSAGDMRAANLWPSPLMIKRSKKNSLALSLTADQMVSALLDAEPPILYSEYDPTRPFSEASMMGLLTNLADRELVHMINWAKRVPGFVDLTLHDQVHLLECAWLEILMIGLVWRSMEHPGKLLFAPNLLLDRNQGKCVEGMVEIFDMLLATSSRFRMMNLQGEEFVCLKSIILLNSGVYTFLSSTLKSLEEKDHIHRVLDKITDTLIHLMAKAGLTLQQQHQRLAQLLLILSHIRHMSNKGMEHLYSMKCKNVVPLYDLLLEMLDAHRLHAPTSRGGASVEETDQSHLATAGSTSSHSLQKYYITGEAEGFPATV
# UniProt Q96RI1: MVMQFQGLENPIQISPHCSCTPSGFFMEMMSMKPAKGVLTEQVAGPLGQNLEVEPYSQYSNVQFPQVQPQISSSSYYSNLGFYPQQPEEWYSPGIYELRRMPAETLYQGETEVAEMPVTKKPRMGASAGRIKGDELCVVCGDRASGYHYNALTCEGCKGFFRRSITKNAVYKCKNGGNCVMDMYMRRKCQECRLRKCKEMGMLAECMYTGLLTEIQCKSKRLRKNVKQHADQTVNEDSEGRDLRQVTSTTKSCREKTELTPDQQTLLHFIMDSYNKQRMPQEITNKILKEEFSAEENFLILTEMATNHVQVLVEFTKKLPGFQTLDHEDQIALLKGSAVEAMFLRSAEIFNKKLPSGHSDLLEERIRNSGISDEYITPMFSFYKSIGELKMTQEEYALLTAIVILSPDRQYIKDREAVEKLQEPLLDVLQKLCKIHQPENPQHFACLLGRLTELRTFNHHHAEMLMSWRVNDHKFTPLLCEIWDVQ
# UniProt P10275: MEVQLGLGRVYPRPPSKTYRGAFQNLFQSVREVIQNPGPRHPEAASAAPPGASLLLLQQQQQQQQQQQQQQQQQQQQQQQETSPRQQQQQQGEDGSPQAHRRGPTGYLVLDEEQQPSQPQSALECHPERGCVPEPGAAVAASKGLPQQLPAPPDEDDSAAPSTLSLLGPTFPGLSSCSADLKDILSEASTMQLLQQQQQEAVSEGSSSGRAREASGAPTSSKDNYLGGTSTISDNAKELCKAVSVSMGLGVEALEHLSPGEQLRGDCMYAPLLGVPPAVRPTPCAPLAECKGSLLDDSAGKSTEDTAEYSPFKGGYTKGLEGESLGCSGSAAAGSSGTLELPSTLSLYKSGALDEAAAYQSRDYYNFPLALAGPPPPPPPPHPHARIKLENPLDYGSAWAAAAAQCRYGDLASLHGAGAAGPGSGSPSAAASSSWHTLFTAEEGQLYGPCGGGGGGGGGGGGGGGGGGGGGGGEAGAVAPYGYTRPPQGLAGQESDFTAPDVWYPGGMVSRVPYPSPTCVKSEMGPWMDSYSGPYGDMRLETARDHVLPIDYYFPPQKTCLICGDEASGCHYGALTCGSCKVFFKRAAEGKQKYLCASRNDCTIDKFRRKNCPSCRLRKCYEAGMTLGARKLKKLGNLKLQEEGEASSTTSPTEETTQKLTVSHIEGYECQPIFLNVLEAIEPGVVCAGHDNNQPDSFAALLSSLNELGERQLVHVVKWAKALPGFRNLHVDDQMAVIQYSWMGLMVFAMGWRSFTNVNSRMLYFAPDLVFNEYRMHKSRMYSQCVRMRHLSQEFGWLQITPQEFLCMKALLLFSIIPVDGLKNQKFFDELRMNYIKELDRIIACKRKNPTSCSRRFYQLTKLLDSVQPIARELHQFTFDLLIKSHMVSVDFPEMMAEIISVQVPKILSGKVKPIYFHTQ
# UniProt P04150: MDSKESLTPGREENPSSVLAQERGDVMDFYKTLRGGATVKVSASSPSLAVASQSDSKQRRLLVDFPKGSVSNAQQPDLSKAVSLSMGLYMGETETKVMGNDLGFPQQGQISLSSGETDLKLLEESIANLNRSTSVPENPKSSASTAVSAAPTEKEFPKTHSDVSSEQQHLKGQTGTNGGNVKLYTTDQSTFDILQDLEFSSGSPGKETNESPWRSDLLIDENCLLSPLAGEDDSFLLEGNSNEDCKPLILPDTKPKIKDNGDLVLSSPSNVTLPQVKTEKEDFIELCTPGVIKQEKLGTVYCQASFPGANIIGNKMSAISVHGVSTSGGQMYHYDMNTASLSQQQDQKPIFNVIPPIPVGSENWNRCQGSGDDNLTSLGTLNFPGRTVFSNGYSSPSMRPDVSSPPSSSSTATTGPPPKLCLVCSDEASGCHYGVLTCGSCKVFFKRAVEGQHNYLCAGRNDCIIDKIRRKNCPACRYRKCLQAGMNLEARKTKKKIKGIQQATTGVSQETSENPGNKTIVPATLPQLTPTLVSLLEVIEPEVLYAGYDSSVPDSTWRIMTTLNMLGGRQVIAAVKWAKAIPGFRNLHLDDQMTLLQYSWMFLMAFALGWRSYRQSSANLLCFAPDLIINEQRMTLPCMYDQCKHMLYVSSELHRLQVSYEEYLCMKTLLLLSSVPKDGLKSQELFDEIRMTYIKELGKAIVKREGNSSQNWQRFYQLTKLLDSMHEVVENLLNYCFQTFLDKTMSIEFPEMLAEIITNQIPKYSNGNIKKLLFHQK
# Where “and” joins values, the source holds several entries; their conditions need not be identical. Identical values can stand only once. For part of these data: Most of the hits are listed elsewhere, so they are rarer here than in the full data. Entries that show only a call come without a potency. The entries are a selection whose mix differs from that of the whole data set. Where a structure was tested more than once in an assay, its records may differ in their call. Calls of active or inactive are those of the source. Unless noted, the call rests on the fitted dose curve; in most records, active means well fitted curve in the direction sought with a large enough effect in the repeat runs; inconclusive means weak or mixed curves; inactive means no such curve, though single readings can be large; an effect the other way counts as inactive or inconclusive.
# How the values were obtained:
# [1] = target: Voltage-gated inwardly rectifying potassium channel KCNH2 (Homo sapiens) (UniProt Q12809); assay: Human Ether-a-go-go-Related Gene (hERG) channel small molecule antagonists: fluorescence cell-based qHTS assay (AID 1671200); conditions: hERG-U2OS cells, FluxOR thallium flux fluorescence; further: potency means the concentration at half of the fitted maximal effect; nearly all actives have a fitted effect of over 50% in size
# Summary of the method: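 First, 1000 cells per well are seeded and cultured overnight at 37 C. Next, FluxOR II dye is loaded for 1 h at room temperature, protected from light. After 10 more minutes, stimulus is added and fluorescence is read.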
# [2] = target: Nuclear receptor subfamily 1 group I member 2 (Homo sapiens) (UniProt O75469); assay: Human pregnane X receptor (PXR) small molecule agonists, qHTS assay (AID 1346982); conditions: PXR-Luc HepG2, CYP3A4 luciferase reporter, 24 h; series mostly up to 42.5 µM; further: nearly all actives have a fitted effect of over 35% in size
# Summary of the method: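 Reporter HepG2 cells expressing PXR-Luc are cultured in charcoal-stripped FBS (5%), treated with compounds for 24 hr at 37 C, and assayed by ONE-Glo luminescence after 30 min at room temperature.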
# [3] = target: Nuclear receptor subfamily 1 group I member 2 (Homo sapiens) (UniProt O75469); assay: CYP3A4 induction through human pregnane X receptor (PXR) by small molecules, qHTS assay (AID 1346984); conditions: DPX-2 HepG2 PXR, CYP3A4-luciferin luminescence, 24 h; series mostly up to 46.1 µM; further: nearly all actives have a fitted effect of over 40% in size; further: potency means the concentration at half of the fitted maximal effect
# Summary of the method: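 Induction measured in HepG2-based DPX-2 cells co-expressing human PXR and a CYP3A4 promoter-driven luciferase. After a 24-hour compound exposure, cells received CYP3A4 luciferin substrate at 3uM final for 3 hours, and light output was then recorded.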
# [4] = target: Nuclear receptor subfamily 1 group I member 2 (Homo sapiens) (UniProt O75469); assay: Human pregnane X receptor (PXR) activation by small molecules, qHTS assay (AID 1346985); conditions: DPX-2 HepG2 CYP3A4-luciferase, 24 h; series mostly up to 38.3 µM; further: nearly all actives have a fitted effect of over 40% in size; further: potency means the concentration at half of the fitted maximal effect
# [5] = qHTS assay for small molecule disruptors of the mitochondrial membrane potential (AID 720635); conditions: HepG2 mitochondrial membrane potential, Mito-MPS dye ratio; at 83.2 µM (top of the series)
# Summary of the method: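 HepG2 cells exposed to compound 1 hr at 37C, then Mito-MPS dye 30 min. Ratio read of aggregate (540/590 nm) versus monomer (490/535 nm) fluorescence.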
# [6] = target: Cytochrome P450 2C19 (Homo sapiens) (UniProt P33261); assay: Cytochrome P450 Family 2 Subfamily C Member 19 (CYP2C19) small molecule antagonists: luciferase reporter qHTS assay (AID 1671197); conditions: P450-Glo CYP2C19 enzyme, luciferin luminescence, 1 h; further: potency means the concentration at half of the fitted maximal effect; nearly all actives have a fitted effect of over 65% in size
# Summary of the method: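 CYP2C19 P450-Glo, 1536-well qHTS. Cpd + enzyme/proluciferin substrate 10 min RT; + NADPH regen, 37C 1 h; stop with luciferin detection reagent, 20 min RT, luminescence (RLU). Pos ctrl ketoconazole.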
# [7] = target: Cytochrome P450 2D6 (Homo sapiens) (UniProt P10635); assay: Cytochrome P450 Family 2 Subfamily D Member 6 (CYP2D6) small molecule antagonists: luciferase reporter qHTS assay (AID 1671196); conditions: P450-Glo CYP2D6 enzyme assay, luciferin luminescence, 1 h; further: potency means the concentration at half of the fitted maximal effect; nearly all actives have a fitted effect of over 50% in size
# Summary of the method: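 Test chemicals meet CYP2D6 plus proluciferin substrate (10 min, RT); NADPH regenerating solution then drives turnover for 1 h. Detection reagent halts the reaction; luminescence measured after 20 min.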
# [8] = target: Estrogen receptor (Homo sapiens) (UniProt P03372); assay: qHTS assay to identify small molecule antagonists of the estrogen receptor alpha (ER-alpha) signaling pathway (AID 743069; active means well fitted curve in the direction sought with a large enough effect in the signal ratio in the repeat runs, not every such curve was filed as active; inconclusive means weak or mixed curves, or effect the other way; inactive means no such curve, though single readings can be large or run the other way; the % refers to the signal ratio); conditions: HEK293 ER-alpha-UAS-bla, beta-lactamase ratio, antagonist mode; series mostly up to 69.4 µM
# [9] = target: Estrogen receptor (Homo sapiens) (UniProt P03372); assay: qHTS assay to identify small molecule agonists of the estrogen receptor alpha (ER-alpha) signaling pathway (AID 743075; calls by dose curve;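 further: HEK293 GripTite cells with ER-alpha and UAS-driven beta-lactamase reporter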; further: potency means the concentration at half of the fitted maximal effect); conditions: HEK293 ER-alpha-UAS-bla, beta-lactamase FRET ratio, 18 h; series mostly up to 70.1 µM
# [10] = target: Bile acid receptor (Homo sapiens) (UniProt Q96RI1); assay: qHTS assay to identify small molecule antagonists of the farnesoid-X-receptor (FXR) signaling pathway (AID 743217; active means well fitted inhibition curve with a large enough effect in the signal ratio in the repeat runs, not every such curve was filed as active; inconclusive means weak or mixed curves, or effect the other way; inactive means no such curve, though single readings can be large or run the other way; the % refers to the signal ratio); conditions: HEK293T FXR-UAS-bla, beta-lactamase ratio, CDCA-stimulated, 16 h
# Summary of the method: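 Screen of the Tox21 10K library in quantitative HTS format using FXR-UAS-bla HEK 293T reporter cells. Agonist chenodeoxycholic acid, 50 uM final, added with compounds; 16 h incubation at 37 °C; beta-lactamase FRET fluorescence measured.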
# [11] = target: Bile acid receptor (Homo sapiens) (UniProt Q96RI1); assay: qHTS assay to identify small molecule agonists of the farnesoid-X-receptor (FXR) signaling pathway (AID 743220; active means well fitted activation curve with a large enough effect in the signal ratio in the repeat runs, not every such curve was filed as active; inconclusive means weak or mixed curves, or effect the other way; the % refers to the signal ratio); conditions: HEK293T FXR-UAS-bla, beta-lactamase FRET ratio, 16 h
# [12] = target: Androgen receptor (Homo sapiens) (UniProt P10275); assay: qHTS assay to identify small molecule agonists of the androgen receptor (AR) signaling pathway using the MDA cell line (AID 743040; further: nearly all actives have a fitted effect of over 20% in size); conditions: MDA-kb2 AR-luc cells, MMTV luciferase, 16 h; at 70.3 µM (top of the series); stronger effect = higher value
# [13] = target: Androgen receptor (Homo sapiens) (UniProt P10275); assay: qHTS assay to identify small molecule antagonists of the androgen receptor (AR) signaling pathway using the MDA cell line (AID 743042; further: potency means the concentration at half of the fitted maximal effect; nearly all actives have a fitted effect of over 55% in size); conditions: MDA-kb2 AR-luc, MMTV luciferase, R1881 antagonist, 16 h; series mostly up to 70.3 µM
# [14] = target: Glucocorticoid receptor (Homo sapiens) (UniProt P04150); assay: qHTS assay to identify small molecule antagonists of the glucocorticoid receptor (GR) signaling pathway (AID 720692; active means well fitted inhibition curve with a large enough effect in the signal ratio in the repeat runs, not every such curve was filed as active; inconclusive means weak or mixed curves, or effect the other way; inactive means no such curve, though single readings can be large or run the other way; the % refers to the signal ratio); conditions: GR-bla HeLa, beta-lactamase FRET ratio, dexamethasone-stimulated, 18 h; at 58.5 µM (top of the series)
structure (smiles),measurement,setting,value
C[C@@H](O)[C@H]1C(=O)N2C(C(=O)O)=C(S[C@@H]3CN[C@H](CNS(N)(=O)=O)C3)[C@H](C)[C@H]12,Potency,[1],active: 9.52 µM
CCOCCn1c(N2CCCN(C)CC2)nc2ccccc21,Potency,[2],inactive
same,Potency,[3],inactive
same,Potency,[4],inactive
CN1CCCCC1CCN1c2ccccc2Sc2ccc(S(C)=O)cc21 (stereo unspecified),Potency,[1],active: 6.01 µM
COc1ccc(C[C@H](C)NC[C@@H](O)c2ccc(O)c(NC=O)c2)cc1,"ratio activity, negative = MMP loss",[5],inactive: 15%
CCN(CC)C(=S)SSC(=S)N(CC)CC,Potency,[6],active: 15.9 µM and active: 5.15 µM and active: 3.89 µM
C#C[C@]1(O)CC[C@H]2[C@@H]3CCC4=Cc5oncc5C[C@]4(C)[C@H]3CC[C@@]21C,Potency,[7],active: 20 µM and active: 12.3 µM
CCOC(=O)[C@H](CCc1ccccc1)N[C@@H](C)C(=O)N1CCC[C@H]1C(=O)O,Potency,[2],inactive
same,Potency,[3],inactive
same,Potency,[4],inactive
CC1CC(OC(=O)C(O)c2ccccc2)CC(C)(C)N1C (stereo unspecified),Potency,[2],inactive
same,Potency,[3],inactive
same,Potency,[4],inactive
CCNC(=O)[C@@H]1CCCN1C(=O)[C@H](CCCN=C(N)N)NC(=O)[C@H](CC(C)C)NC(=O)[C@@H](CC(C)C)NC(=O)[C@H](Cc1ccc(O)cc1)NC(=O)[C@H](CO)NC(=O)[C@H](Cc1c[nH]c2ccccc12)NC(=O)[C@H](Cc1cnc[nH]1)NC(=O)[C@@H]1CCC(=O)N1,Potency,[8],inactive
same,Potency,[9],inactive
Cc1ccc2c(c1)c1c3n2CCNC3CCC1 (stereo unspecified),Potency,[3],inactive
same,Potency,[4],inactive
CC(C)C[C@H](NC(=O)[C@@H](COC(C)(C)C)NC(=O)[C@H](Cc1ccc(O)cc1)NC(=O)[C@H](CO)NC(=O)[C@H](Cc1c[nH]c2ccccc12)NC(=O)[C@H](Cc1cnc[nH]1)NC(=O)[C@@H]1CCC(=O)N1)C(=O)N[C@@H](CCCN=C(N)N)C(=O)N1CCC[C@H]1C(=O)NNC(N)=O,Potency,[8],inactive
same,Potency,[9],inactive
NC(=O)N1c2ccccc2CC(=O)c2ccccc21,Potency,[2],inactive
same,Potency,[3],inactive
same,Potency,[4],inactive
CC(C)(C)NC(=O)[C@@H]1CN(Cc2cccnc2)CCN1C[C@@H](O)C[C@@H](Cc1ccccc1)C(=O)N[C@H]1c2ccccc2C[C@H]1O,"activity change, negative = inhibition",[10]; at 62.6 µM (top of the series),inactive: -0.0612% and inactive: 0.774%
same,activation,[11]; at 62.6 µM (top of the series),inactive: 0.674% and inactive: -0.303%
NS(=O)(=O)c1cc(C2(O)NC(=O)c3ccccc32)ccc1Cl (stereo unspecified),Potency,[2],inactive
same,Potency,[3],inactive
same,Potency,[4],inactive
C=CCSCC1Nc2cc(Cl)c(S(N)(=O)=O)cc2S(=O)(=O)N1 (stereo unspecified),Potency,[2],inactive
same,Potency,[3],inactive
same,Potency,[4],inactive
CN1CCC[C@@H]1Cc1c[nH]c2ccc(CCS(=O)(=O)c3ccccc3)cc12,Potency,[3],inactive
same,Potency,[4],active: 15.8 µM
C1CCC(C(CC2CCCCN2)C2CCCCC2)CC1 (stereo unspecified),Potency,[1],active: 8.49 µM
CC(C)(C)c1ccc(C(=O)CCCN2CCC(OC(c3ccccc3)c3ccccc3)CC2)cc1,Potency,[4],inactive
CC(O)CO (stereo unspecified),"activity change, negative = inhibition",[10]; at 5.95 µM (top of the series),inactive: 2.93%
same,"activity change, negative = inhibition",[10]; at 62.6 µM (top of the series),inactive: 9.9%
same,activation,[11]; at 5.95 µM (top of the series),inactive: 1.35%
same,activation,[11]; at 62.6 µM (top of the series),inactive: -2.74% and inactive: 0.524%
CC[C@H](C)[C@@H]1NC(=O)[C@H](Cc2ccc(O)cc2)NC(=O)[C@@H](N)CSSC[C@@H](C(=O)N2CCC[C@H]2C(=O)N[C@@H](CC(C)C)C(=O)NCC(N)=O)NC(=O)[C@H](CC(N)=O)NC(=O)[C@H](CCC(N)=O)NC1=O,Potency,[8],inactive
same,Potency,[9],active: 16.9 µM [inconclusive]
NC[C@H]1O[C@H](O[C@H]2[C@H](O)[C@@H](O[C@H]3O[C@H](CO)[C@@H](O)[C@H](N)[C@H]3O)[C@H](N)C[C@@H]2N)[C@H](N)[C@@H](O)[C@@H]1O,"activity change, negative = inhibition",[10]; at 29.1 µM (top of the series),inactive: -13.6%
same,activation,[11]; at 29.1 µM (top of the series),inactive: 5.88%
CN1CCC[C@@H]1CCO[C@](C)(c1ccccc1)c1ccc(Cl)cc1,Potency,[3],active: 15.8 µM
same,Potency,[4],active: 25.1 µM
CN(C)CCC[C@@]1(c2ccc(F)cc2)OCc2cc(C#N)ccc21,"activity change, negative = inhibition",[10]; at 62.6 µM (top of the series),inactive: -13.3%
O=P(O)(O)O,Potency,[2],inactive
same,Potency,[3],inactive
same,Potency,[4],inactive
CCNC(=O)[C@@H]1CCCN1C(=O)[C@H](CCCN=C(N)N)NC(=O)[C@H](CC(C)C)NC(=O)[C@@H](Cc1c[nH]c2ccccc12)NC(=O)[C@H](Cc1ccc(O)cc1)NC(=O)[C@H](CO)NC(=O)[C@H](Cc1c[nH]c2ccccc12)NC(=O)[C@H](Cc1cnc[nH]1)NC(=O)[C@@H]1CCC(=O)N1,activity change,[12],inactive: -12.6%
same,Potency,[13],active: 6.68 µM
CC(C)COCC(CN(Cc1ccccc1)c1ccccc1)N1CCCC1 (stereo unspecified),Potency,[1],active: 0.477 µM
CC(C)[N+]1(C)[C@@H]2CC[C@H]1CC(OC(=O)C(CO)c1ccccc1)C2 (stereo partly specified),"activity change, negative = inhibition",[14],inactive: 3.7% and inactive: -5.09%
NC[C@H]1O[C@H](O[C@H]2[C@H](O[C@@H]3O[C@H](CO)[C@@H](O)[C@H]3O)C(O)[C@H](N)C[C@@H]2N)[C@H](N)[C@@H](O)[C@@H]1O (stereo partly specified),"activity change, negative = inhibition",[10]; at 13.2 µM (top of the series),inactive: 5.06%
same,activation,[11]; at 13.2 µM (top of the series),inactive: 1.05%
same,activation,[2],inactive: -2.38% [at 8.39 µM]
same,Potency,[3],inactive
same,Potency,[4],inactive
NC(=O)CC[C@@H]1NC(=O)[C@H](Cc2ccccc2)NC(=O)[C@H](Cc2ccc(O)cc2)NC(=O)[C@@H](N)CSSC[C@@H](C(=O)N2CCC[C@H]2C(=O)N[C@@H](CCCN=C(N)N)C(=O)NCC(N)=O)NC(=O)[C@H](CC(N)=O)NC1=O,Potency,[8],inactive
same,Potency,[9],active: 8.49 µM [inconclusive] and inactive
CC1(C)[C@@H](OC(=O)CCC(=O)O)CC[C@]2(C)[C@H]3C(=O)C=C4[C@@H]5C[C@@](C)(C(=O)O)CC[C@]5(C)CC[C@@]4(C)[C@]3(C)CC[C@@H]12,Potency,[2],inactive
same,Potency,[3],inactive
same,Potency,[4],inactive
C[C@H]1[C@H]2CC[C@H]3[C@@H]4CC=C5C[C@@H](N(C)C)CC[C@]5(C)[C@H]4CC[C@]23CN1C,Potency,[2],inactive
same,Potency,[3],inactive
same,Potency,[4],inactive
